Legend:
[1] = target: Acetylcholinesterase (Homo sapiens) (UniProt P22303); test: Reactivation of sarin-inhibited human recombinant AChE using acetylthiocholine iodide as substrate by Ellman spectrophotometric method relative to control
[2] = target: Acetylcholinesterase (Homo sapiens) (UniProt P22303); test: Reactivation of VX-inhibited human recombinant AChE using acetylthiocholine iodide as substrate assessed as maximal first-order reactivation rate by Ellman spectrophotometric method
[3] = target: Acetylcholinesterase (Homo sapiens) (UniProt P22303); test: Reactivation of cyclosarin-inhibited human recombinant AChE using acetylthiocholine iodide as substrate assessed as time required for maximal percentage of reactivation by Ellman spectrophotometric method
[4] = target: Acetylcholinesterase (Homo sapiens) (UniProt P22303); test: Reactivation of sarin-inhibited human recombinant AChE using acetylthiocholine iodide as substrate assessed as dissociation constant of conjugated enzyme-oxime complex by Ellman spectrophotometric method
[5] = target: T1, Cholinesterases; ACHE & BCHE (Homo sapiens) (UniProt P06276+P22303); test: Selectivity ratio of Ki for human plasma BChE to Ki for human erythrocytic AChE
[6] = target: Acetylcholinesterase (Homo sapiens) (UniProt P22303); test: Reactivation of sarin-inhibited human recombinant AChE using acetylthiocholine iodide as substrate assessed as overall second-order reactivation rate by Ellman spectrophotometric method
[7] = target: Acetylcholinesterase (Homo sapiens) (UniProt P22303); test: Reactivation of VX-inhibited human recombinant AChE using acetylthiocholine iodide as substrate assessed as time required for maximal percentage of reactivation at 1 mM by Ellman spectrophotometric method
[8] = target: Acetylcholinesterase (Homo sapiens) (UniProt P22303); test: Reactivation of VX-inhibited human recombinant AChE using acetylthiocholine iodide as substrate assessed as overall second-order reactivation rate by Ellman spectrophotometric method
[9] = target: Acetylcholinesterase (Homo sapiens) (UniProt P22303); test: Reactivation of sarin-inhibited human recombinant AChE using acetylthiocholine iodide as substrate assessed as maximal first-order reactivation rate by Ellman spectrophotometric method
[10] = target: Acetylcholinesterase (Homo sapiens) (UniProt P22303); test: Reactivation of cyclosarin-inhibited human recombinant AChE using acetylthiocholine iodide as substrate by Ellman spectrophotometric method relative to control
[11] = target: Acetylcholinesterase (Homo sapiens) (UniProt P22303); test: Reactivation of VX-inhibited human recombinant AChE at 1 mM using acetylthiocholine iodide as substrate by Ellman spectrophotometric method relative to control
[12] = target: Acetylcholinesterase (Homo sapiens) (UniProt P22303); test: Reactivation of cyclosarin-inhibited human recombinant AChE using acetylthiocholine iodide as substrate assessed as maximal first-order reactivation rate by Ellman spectrophotometric method
[13] = target: Acetylcholinesterase (Homo sapiens) (UniProt P22303); test: Reactivation of sarin-inhibited human recombinant AChE using acetylthiocholine iodide as substrate assessed as time required for maximal percentage of reactivation by Ellman spectrophotometric method
[14] = target: Acetylcholinesterase (Homo sapiens) (UniProt P22303); test: Reactivation of tabun-inhibited human erythrocytic AChE using acetylthiocholine iodide as substrate assessed as time required for maximal percentage of reactivation by Ellman spectrophotometric method
[15] = target: Acetylcholinesterase (Homo sapiens) (UniProt P22303); test: Reactivation of cyclosarin-inhibited human recombinant AChE using acetylthiocholine iodide as substrate assessed as dissociation constant of conjugated enzyme-oxime complex by Ellman spectrophotometric method
[16] = target: Acetylcholinesterase (Homo sapiens) (UniProt P22303); test: Reactivation of tabun-inhibited human erythrocytic AChE using acetylthiocholine iodide as substrate by Ellman spectrophotometric method relative to control
[17] = target: Acetylcholinesterase (Homo sapiens) (UniProt P22303); test: Reactivation of cyclosarin-inhibited human recombinant AChE using acetylthiocholine iodide as substrate assessed as overall second-order reactivation rate by Ellman spectrophotometric method
[18] = target: Acetylcholinesterase (Homo sapiens) (UniProt P22303); test: Reactivation of tabun-inhibited human erythrocytic AChE using acetylthiocholine iodide as substrate assessed as dissociation constant of conjugated enzyme-oxime complex by Ellman spectrophotometric method
[19] = target: Acetylcholinesterase (Homo sapiens) (UniProt P22303); test: Reactivation of VX-inhibited human recombinant AChE using acetylthiocholine iodide as substrate assessed as dissociation constant of conjugated enzyme-oxime complex by Ellman spectrophotometric method
[20] = target: Acetylcholinesterase (Homo sapiens) (UniProt P22303); test: Reactivation of tabun-inhibited human erythrocytic AChE using acetylthiocholine iodide as substrate assessed as overall second-order reactivation rate by Ellman spectrophotometric method
[21] = target: Acetylcholinesterase (Homo sapiens) (UniProt P22303); test: Reactivation of tabun-inhibited human erythrocytic AChE using acetylthiocholine iodide as substrate assessed as maximal first-order reactivation rate by Ellman spectrophotometric method
[22] = target: Acetylcholinesterase (Homo sapiens) (UniProt P22303); test: Reactivation of VX-inhibited human recombinant AChE using acetylthiocholine iodide as substrate assessed as time required for maximal percentage of reactivation at 500 uM by Ellman spectrophotometric method
[23] = target: Acetylcholinesterase (Homo sapiens) (UniProt P22303); test: Reactivation of tabun-inhibited human recombinant AChE using acetylthiocholine iodide as substrate assessed as dissociation constant of conjugated enzyme-oxime complex by Ellman spectrophotometric method
[24] = target: Acetylcholinesterase (Homo sapiens) (UniProt P22303); test: Reactivation of tabun-inhibited human recombinant AChE using acetylthiocholine iodide as substrate assessed as time required for maximal percentage of reactivation by Ellman spectrophotometric method
[25] = target: Acetylcholinesterase (Homo sapiens) (UniProt P22303); test: Reactivation of tabun-inhibited human recombinant AChE using acetylthiocholine iodide as substrate assessed as overall second-order reactivation rate by Ellman spectrophotometric method
[26] = target: T1, Cholinesterases; ACHE & BCHE (Homo sapiens); test: Selectivity ratio of Ki for human plasma BChE to Ki for recombinant human AChE
[27] = target: Acetylcholinesterase (Homo sapiens) (UniProt P22303); test: Reactivation of VX-inhibited human recombinant AChE at 500 uM using acetylthiocholine iodide as substrate by Ellman spectrophotometric method relative to control
[28] = target: Acetylcholinesterase (Homo sapiens) (UniProt P22303); test: Reactivation of tabun-inhibited human recombinant AChE using acetylthiocholine iodide as substrate assessed as maximal first-order reactivation rate by Ellman spectrophotometric method
[29] = target: Acetylcholinesterase (Homo sapiens) (UniProt P22303); test: Reactivation of tabun-inhibited human recombinant AChE using acetylthiocholine iodide as substrate by Ellman spectrophotometric method relative to control
[30] = target: Acetylcholinesterase (Homo sapiens) (UniProt P22303); test: Reactivation of VX-inhibited human recombinant AChE using acetylthiocholine iodide as substrate assessed as time required for maximal percentage of reactivation at 200 uM by Ellman spectrophotometric method
[31] = target: Acetylcholinesterase (Homo sapiens) (UniProt P22303); test: Reactivation of VX-inhibited human recombinant AChE at 200 uM using acetylthiocholine iodide as substrate by Ellman spectrophotometric method relative to control

Protein sequences, listed by entry. Tags and fused reporters are not part of them. Lines headed by an entry give the natural chain unless they say otherwise; changes in a name come on top.
UniProt P22303: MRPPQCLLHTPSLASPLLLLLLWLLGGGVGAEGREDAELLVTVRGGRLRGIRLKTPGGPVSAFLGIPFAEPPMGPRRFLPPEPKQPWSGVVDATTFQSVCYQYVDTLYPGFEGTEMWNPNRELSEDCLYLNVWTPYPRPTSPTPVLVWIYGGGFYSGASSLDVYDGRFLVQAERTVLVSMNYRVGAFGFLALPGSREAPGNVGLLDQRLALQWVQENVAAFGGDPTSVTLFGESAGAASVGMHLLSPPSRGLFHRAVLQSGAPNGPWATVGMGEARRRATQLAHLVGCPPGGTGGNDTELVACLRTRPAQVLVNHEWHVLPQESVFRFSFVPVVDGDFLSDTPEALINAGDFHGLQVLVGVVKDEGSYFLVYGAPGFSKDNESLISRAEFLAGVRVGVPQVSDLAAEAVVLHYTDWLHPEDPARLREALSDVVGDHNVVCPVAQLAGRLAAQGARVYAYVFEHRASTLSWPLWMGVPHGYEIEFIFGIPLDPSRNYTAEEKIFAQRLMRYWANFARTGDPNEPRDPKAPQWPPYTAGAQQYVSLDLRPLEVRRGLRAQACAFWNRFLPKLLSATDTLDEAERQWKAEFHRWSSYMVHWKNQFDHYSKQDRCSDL
UniProt P06276, whole entry, looked up: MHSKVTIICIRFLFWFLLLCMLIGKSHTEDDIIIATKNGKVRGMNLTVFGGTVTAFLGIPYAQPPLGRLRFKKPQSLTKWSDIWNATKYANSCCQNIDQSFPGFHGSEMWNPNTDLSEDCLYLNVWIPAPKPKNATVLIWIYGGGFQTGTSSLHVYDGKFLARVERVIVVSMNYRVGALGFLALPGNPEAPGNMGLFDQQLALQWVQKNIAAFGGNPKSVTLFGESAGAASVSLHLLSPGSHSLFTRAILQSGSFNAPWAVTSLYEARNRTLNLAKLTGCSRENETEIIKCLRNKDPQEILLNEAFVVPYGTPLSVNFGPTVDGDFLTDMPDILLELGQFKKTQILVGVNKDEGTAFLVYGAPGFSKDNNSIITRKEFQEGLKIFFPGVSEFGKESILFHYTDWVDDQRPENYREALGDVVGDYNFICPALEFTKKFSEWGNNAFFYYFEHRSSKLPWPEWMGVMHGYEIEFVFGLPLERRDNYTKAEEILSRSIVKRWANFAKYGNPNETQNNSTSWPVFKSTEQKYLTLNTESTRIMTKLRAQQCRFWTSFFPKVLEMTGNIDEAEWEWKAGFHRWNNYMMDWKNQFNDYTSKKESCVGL

| SMILES | %max [1] [%] | K [2] [min⁻¹] | TIME [3] [h] | K [4] [µM] | K [6] [M⁻¹ s⁻¹] | TIME [7] [h] | K [8] [M⁻¹ s⁻¹] | K [9] [min⁻¹] | %max [10] [%] | %max [11] [%] | K [12] [min⁻¹] | TIME [13] [h] | TIME [14] [h] | K [15] [µM] | %max [16] [%] | K [17] [M⁻¹ s⁻¹] | K [19] [µM] | TIME [24] [h] | Ratio Ki [26] | %max [29] [%] | also measured |
| --- | --- | --- | --- | --- | --- | --- | --- | --- | --- | --- | --- | --- | --- | --- | --- | --- | --- | --- | --- | --- | --- |
| NC(=O)c1cc[n+](CCCC[n+]2ccc(/C=N/O)cc2)cc1 | 100 | 0.9 | 4 | 510 | 39 | 2 | 12.9 | 1.2 | 100 | 100 | 0.07 | 5 | 0.5 | 1740 | 100 | 0.717 | 1130 |  |  |  | Ratio Ki [5]: 3.8; K [18]: 110 µM; K [20]: 11.2 M⁻¹ s⁻¹; K [21]: 0.074 min⁻¹ |
| NC(=O)c1cc[n+](CCCC[n+]2ccc(/C=N/O)c(Cl)c2)cc1 | 80 | 0.18 | 2.5 | 1150 | 5.5 |  | 6.83 | 0.38 | 100 |  | 0.027 | 1.5 |  | 80 |  | 5.67 | 430 | 6.5 | 7.4 | 80 | TIME [22]: 1.67 h; K [23]: 40 µM; K [25]: 7.83 M⁻¹ s⁻¹; %max [27]: 100%; K [28]: 0.017 min⁻¹ |
| C[n+]1ccccc1C=NO | 85 | 0.12 | 2 | 190 | 14.2 | 0.5 | 33.3 | 0.16 | 100 | 80 | 0.05 | 0.667 | 12 | 1180 | 90 | 0.717 | 58 |  | 2.2 |  | K [18]: 570 µM; K [20]: 0.267 M⁻¹ s⁻¹; K [21]: 0.009 min⁻¹ |
| NC(=O)c1cc[n+](C/C=C/C[n+]2cc(Cl)c(/C=N/O)c(Cl)c2)cc1 | 80 | 0.059 | 0.167 | 60 | 47.2 |  | 108 | 0.17 | 100 |  | 0.49 | 0.5 |  | 220 |  | 36.7 | 10 | 10 | 8.5 | 40 | TIME [30]: 1 h; %max [31]: 80% |
| NC(=O)c1cc[n+](C/C=C/C[n+]2ccc(/C=N/O)c(Cl)c2)cc1 | 80 | 0.14 | 2 | 840 | 7 |  | 7.33 | 0.35 | 100 |  | 0.04 | 1 |  | 160 |  | 4 | 320 | 3.5 | 12.3 | 80 | TIME [22]: 1 h; K [23]: 40 µM; K [25]: 9.33 M⁻¹ s⁻¹; %max [27]: 100%; K [28]: 0.021 min⁻¹ |
| NC(=O)c1cc[n+](C/C=C/C[n+]2ccc(/C=N/O)cc2)cc1 | 100 | 0.5 | 4 | 650 | 37.5 | 2 | 25.5 | 1.5 | 100 | 100 | 0.08 | 5 | 0.3 | 740 | 90 | 1.83 | 290 |  |  |  | Ratio Ki [5]: 10.1; K [18]: 70 µM; K [20]: 30 M⁻¹ s⁻¹; K [21]: 0.13 min⁻¹ |
| NC(=O)c1cc[n+](CCC[n+]2ccc(/C=N/O)c(Cl)c2)cc1 | 80 | 0.17 | 0.167 | 745 | 8.17 |  | 13.7 | 0.37 | 100 |  | 0.49 | 1.5 |  | 200 |  | 41.7 | 200 | 24 | 6.5 | 80 | TIME [22]: 0.667 h; K [23]: 7 µM; K [25]: 4.67 M⁻¹ s⁻¹; %max [27]: 100%; K [28]: 0.002 min⁻¹ |
| NC(=O)c1cc[n+](CCCC[n+]2cc(Cl)c(/C=N/O)c(Cl)c2)cc1 | 80 | 0.18 | 0.667 | 50 | 64.7 |  | 71.8 | 0.2 | 80 |  | 0.101 | 0.5 |  | 50 |  | 35.3 | 40 | 24 | 11.7 | 20 | TIME [30]: 0.333 h; %max [31]: 60% |
